## Apparent affinities of Ab-14 variants for a coronavirus HR2 peptide

Reference: Li et al. 2023, doi:10.1038/s41467-023-39022-2. File: FLAb, binding data.

Binding partner: SARS-CoV-2 spike HR2 peptide, sequence PDVDLGDISGINAS.

Parent: Ab-14, a human scFv built as VH, the linker GGGGSGGGGSGGGGS, VL. Only the CDRs of the light chain vary.
VH: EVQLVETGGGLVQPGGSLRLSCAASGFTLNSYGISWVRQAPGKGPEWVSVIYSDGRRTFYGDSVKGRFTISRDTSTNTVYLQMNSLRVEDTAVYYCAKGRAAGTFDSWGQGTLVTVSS
VL: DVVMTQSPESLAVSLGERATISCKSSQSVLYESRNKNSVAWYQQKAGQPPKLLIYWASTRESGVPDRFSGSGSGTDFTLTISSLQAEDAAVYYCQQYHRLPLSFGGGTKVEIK

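The parent was found by panning a naive human phage display library on the peptide. Designed CDR sequences, proposed from the first random library and measured here. Their group label is 14L_Ctrl (Ctrl: baseline library sampled from a position-specific scoring matrix, with some repeated check sequences). AlphaSeq pools MATa yeast showing the antibodies with MATalpha yeast showing the peptide. Mating (16 h, 30 °C) was followed by selection of diploids and sequencing of their barcodes. Each replicate has its own calibration line, from reference interactions of the BCL2 family. Each pool was mated in six replicate cultures.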

Variants are written as CDR1, CDR2 and CDR3 of the light chain (limits as in the source). Parent: KSSQSVLYESRNKNSVA, WASTRES, QQYHRLPLS.
The read-out is the apparent dissociation constant on a log10 scale (nM): the lower, the stronger.
"nd" marks a missing value. The strain was present, yet no cells mated with the target were sequenced in that replicate, which points to weak or no binding.
Nonspecific signal, from three strains lacking the peptide, appeared in 4% of pairings of all light chain designs, centred on 2.64 (5% of these signals below 1.59); values are not corrected for it. For each scFv, signals with the empty controls are counted beside the result, with their mean in brackets.
The authors' rule: three or more of the six replicates give a measured affinity, fewer mean a poor binder.
Of ten entries with the parent sequence, four were seen in most replicates (averages 0.34 to 2.37), three in one and three in none, so single entries are noisy.
Values of this round are not directly comparable with the first-round values of the same sequences.

CDR-L1	CDR-L2	CDR-L3	log10 Kd (nM) by replicate	empty controls
KSSQVVLQESTNKNSVA	SASTRES	QQYHRLPLS	0.36 / 0.34 / 0.13 / 0.16 / 0.23 / 0.42	1 of 18 (3.59)
KSSQSVLYESNNKNSVA	WAATRES	QQYPRLPLD	2.52 / nd / nd / 2.62 / 2.60 / 2.63	0 of 18
KSSQSVLYESRNKNSVA	WASTRES	QLYMRLPLT	1.84 / 1.75 / nd / 1.46 / 2.40 / 2.22	1 of 18 (1.60)
KISQSVLYESRNKNSVA	SASTRMP	QQYHRLPLS	-0.11 / -0.29 / -0.19 / -0.34 / -0.28 / -0.19	3 of 18 (3.25)
KSSQGVMDESRNKNSVA	WGSTRES	QQYHRLPLS	1.30 / 1.32 / 1.07 / 1.32 / 0.68 / 1.14	0 of 18
KSSQSTLYENHNKNSVA	WASTRES	QQYHRDPLS	nd / nd / nd / 2.50 / nd / nd	0 of 18
KSSQTVYYESRFKNFVA	WASTRES	QQYHRLPLS	nd / nd / nd / nd / nd / nd	0 of 18
KSSQSVLVESRNSNSVA	DASTRES	QQYSRLPLS	0.12 / 0.18 / 0.05 / 0.03 / 0.06 / 0.26	0 of 18
KSSQSILYESRFKNSVA	GASTRES	QQYVRLPLS	0.71 / 0.39 / 0.53 / 0.25 / 0.53 / 0.39	3 of 18 (2.96)
KMSQSVLYESRNKNSVA	WSSTRES	QQYCRLPLS	1.11 / 1.05 / 1.21 / 0.86 / 1.35 / 1.17	1 of 18 (2.96)
KSSQSVLYESTNKNSVA	DASTRES	QQYHRLPLS	0.02 / -0.16 / 0.00 / -0.32 / -0.11 / -0.07	1 of 18 (2.58)
KSSQSVLYESRNKNSVA	AASTRES	QQYHRTPLS	0.79 / 0.77 / 0.56 / 0.88 / 0.46 / 1.35	3 of 18 (2.64)
KSSQSVLGESRNHNSVA	QASTRES	QQYHRLPLS	1.14 / 0.79 / 0.92 / 1.13 / 0.76 / 0.81	2 of 18 (2.89)
KLSQSVWYESFNKNSVA	EASTRES	QQYHRLPLS	1.54 / nd / 2.50 / nd / 2.26 / nd	0 of 18
KSSQSVLYEDRNKNSVA	SASTRES	QQYHRLPLS	1.61 / 1.27 / 1.50 / 1.79 / 1.68 / 1.44	0 of 18
KSSQSVLDESRNKNSVA	YASTRES	QFYHMLPLS	nd / 0.68 / nd / nd / nd / nd	0 of 18
KSSQSVLYESYNKNSVA	WASTRES	QQYHFLPLS	nd / nd / nd / nd / nd / nd	0 of 18
KMSQSVLQESCDKNSVA	QASTRES	QQYHRLPLS	0.73 / 0.71 / 1.04 / 0.45 / 0.93 / 0.61	3 of 18 (2.86)
KSSQSVLYESRNKNSVA	WADTRES	QQYHRLPLL	1.76 / 0.75 / 1.21 / 1.88 / 1.08 / 1.09	0 of 18
KRSQSVLYESRNKNSVA	QASTREH	QQYHDLPLS	0.29 / 0.29 / 0.41 / 0.11 / 0.16 / 0.93	1 of 18 (1.85)
KSSQSMLYESRNKNSVA	AASTRET	QQYHRLPLS	0.47 / 0.19 / 0.27 / -0.23 / -0.10 / 0.09	0 of 18
KSSQSVLYESRNKNNVA	WASTREL	QQYHRLPLS	2.54 / 3.74 / 2.27 / 4.80 / nd / 2.59	1 of 18 (2.81)
KSSQSVLYESRNKNNVA	WASVRES	QQCHRLPLS	nd / nd / nd / nd / nd / nd	0 of 18
KFSQSVLYESRNKNSVA	DASTRES	QQYVVLPLS	0.00 / -0.06 / -0.26 / -0.23 / -0.02 / 0.21	1 of 18 (1.90)
KLSQSVLYESRLPNSVA	WGSTRES	QQYHRLPLS	2.32 / nd / 2.36 / 2.34 / 1.35 / 2.08	0 of 18
KISQSVLYESNNKVSVA	TASTRES	QQCHRLPLS	nd / nd / nd / nd / nd / nd	1 of 18 (1.34)
KSSQSQLYLSRNGNSVA	EASTRES	QQYHRLELS	0.45 / 0.29 / 0.51 / -0.44 / -0.26 / -0.15	0 of 18
KSSQSVEYESRNKNSVA	WASTRNS	QQYHRPPLS	nd / nd / 1.89 / 2.69 / nd / nd	0 of 18
KMSWSVLYESRNKNSVA	WASTRES	QQYGRLPLS	1.07 / 1.15 / nd / -0.06 / 0.80 / nd	0 of 18
YSSQSVLEESRNKNSVA	WASTRES	QDPHRLPLS	nd / nd / nd / nd / nd / nd	0 of 18
KTSQSVLYQSRNKNSVA	NASTRES	QAYHRLPLS	1.53 / 1.66 / 1.27 / 1.28 / 2.29 / 1.24	0 of 18
KSSQSVRYESGNKRSVA	WASWRES	QQYGRLPLS	nd / nd / nd / nd / nd / nd	0 of 18
KSSQSVLYESRNKNSVA	AASTREI	QQYHDLPLS	nd / nd / nd / nd / nd / nd	0 of 18
KSQQSVLNESFNKNSVA	RASTRES	QQYHRLPLE	0.87 / 0.18 / 0.29 / 0.09 / 0.51 / 0.74	0 of 18
KSSQPMLYESRNKNSVA	GASTRES	QQYHRLPLS	0.67 / 0.57 / 0.42 / 0.39 / 0.78 / 1.01	1 of 18 (2.93)
QFSQSVLYESRNKNSVA	WASTRES	QQYHRLPLS	0.76 / 0.62 / 0.79 / 0.46 / 0.88 / 0.79	1 of 18 (3.05)

Extract of 4 entries:

CDR-L1	CDR-L2	CDR-L3	log10 Kd (nM) by replicate	empty controls
QFSQSVLYESRNKNSVA	WASTRES	QQYHRLPLS	0.76 / 0.62 / 0.79 / 0.46 / 0.88 / 0.79	1 of 18 (3.05)
KSSQSVLYESTNKNSVA	DASTRES	QQYHRLPLS	0.02 / -0.16 / 0.00 / -0.32 / -0.11 / -0.07	1 of 18 (2.58)
KSSQPMLYESRNKNSVA	GASTRES	QQYHRLPLS	0.67 / 0.57 / 0.42 / 0.39 / 0.78 / 1.01	1 of 18 (2.93)
KISQSVLYESRNKNSVA	SASTRMP	QQYHRLPLS	-0.11 / -0.29 / -0.19 / -0.34 / -0.28 / -0.19	3 of 18 (3.25)